# Results: patent US20200239500A1, “Compositions and Methods for Synthesis of Phosphorylated Molecules” (THE REGENTS OF THE UNIVERSITY OF CALIFORNIA, priority 2018, published 2020)
substance,measurement,setting,value
1-(2-(pyrenesulfonyl)ethyl)pyrophosphate [pyrene pyrophosphate],stability to atmospheric conditions,solid at room temperature,stable to atmospheric conditions
same,storage stability (loss of activity),stored for long periods of time,without loss of activity
